Experiments:
physchem = conditions: pH 7.4
[1] = Table 1; average of literature references only; pH 7.4; cited from earlier work

Structure (SMILES)	chromatographic logD (physchem)	logDoct [1]
CN(C)CCC(c1ccc(Cl)cc1)c1ccccn1 (centres unmarked) [Chlorpheniramine]	1.56	
c1ccc2ccccc2c1 [Naphthalene]		3.37

From patent US20020161528A1, “Tool for lipophilicity determination in drug discovery basic and neutral compounds” (Pfizer Inc., priority 2001, published 2002)
